# Ab-14 heavy chain CDR variants: yeast mating affinities

The measurements come from Li et al. 2023 (doi:10.1038/s41467-023-39022-2) through the FLAb antibody collection.

Binding partner: SARS-CoV-2 spike HR2 peptide, sequence PDVDLGDISGINAS.

The variants keep the light chain, the linker and the frameworks of Ab-14 (scFv order VH, three GGGGS repeats, VL).
VH: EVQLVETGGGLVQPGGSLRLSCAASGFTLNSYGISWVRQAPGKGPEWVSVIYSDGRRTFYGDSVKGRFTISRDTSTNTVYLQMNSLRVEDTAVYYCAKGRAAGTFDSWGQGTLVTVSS
VL: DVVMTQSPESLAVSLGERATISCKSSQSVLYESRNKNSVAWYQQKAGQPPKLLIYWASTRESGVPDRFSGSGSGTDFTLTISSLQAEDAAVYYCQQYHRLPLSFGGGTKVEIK

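The starting antibody came from a phage panning campaign against this peptide. Designed CDR sequences, proposed from the first random library and measured here. Their group label is 14H_GP_Gibbs (GP: Gaussian process model; Gibbs: Gibbs sampling; a sequence that several methods proposed may carry one label only). Affinity was read by AlphaSeq, a pooled yeast mating assay with surface-displayed partners. Pairs that bind mate more often; barcode pairs of the diploids are counted by sequencing. The ratio of observed to expected reads was calibrated, replicate by replicate, on BCL2-family standards whose Kd was known from biolayer interferometry. There are six technical replicates.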

Each variant is given by its three heavy chain CDRs, as the data file delimits them; those of the parent are GFTLNSYGIS, VIYSDGRRTFYGDSVK, GRAAGTFDS. Numbers give log10(Kd / nM), so 0 is 1 nM and 3 is 1 µM. Smaller is tighter. Replicates are averaged; those with no signal do not enter the mean. An entry "ND" has no value in the source: the pair was not observed among the diploids in that replicate. This suggests poor binding but is not conclusive. The authors' rule: three or more of the six replicates give a measured affinity, fewer mean a poor binder. The parent sequence was in this pool as ten entries: three were never detected, three once, and four in most replicates, with averages from 0.34 to 2.37. Nonspecific signal, from three strains lacking the peptide, appeared in 1% of pairings of all heavy chain designs, centred on 2.08 (5% of these signals below 0.84); values are not corrected for it. For each scFv, signals with the empty controls are counted beside the result, with their mean in brackets. A sequence measured in both rounds can read differently, since the two assays cover different ranges.

| CDR-H1 | CDR-H2 | CDR-H3 | log10 Kd (nM) by replicate | mean log10 Kd (nM) | empty controls |
|---|---|---|---|---|---|
| KFELNSYGIS | VIYSDGRRTFYGDSVK | GRTAGTFDT | 1.74 1.69 1.96 ND 0.42 3.00 | 1.76 | 0/18 |
| GFTLNSYGIS | VIYSDGLRTFYHDSVK | GRQAGTFDT | ND 0.11 1.25 1.15 ND 0.48 | 0.75 | 0/18 |
| GFNLNSYGIS | VIYSDGRRTFYADSVK | GNEAGTFDT | 0.84 -0.12 0.14 0.13 -0.01 0.36 | 0.22 | 0/18 |
| GFRLNEYGIS | VIYSDGRRTFYGDSVK | GRMAGTFDS | 1.27 1.00 0.55 0.49 0.58 0.86 | 0.79 | 0/18 |
| GFQLNSYGIS | VIYSDGRRTFYKDSVK | GQAAGTFDL | ND 0.75 ND ND ND 1.83 | 1.29 | 0/18 |
| GFDLNSYGIS | VIYSDGRRTFYQDMVK | GEAAGTFDT | 1.97 1.25 1.17 0.96 0.98 0.78 | 1.18 | 3/18 (2.43) |
| GFWLNDYGIS | VIYSDGRRTMYGDSVK | GRQAGTFDS | 0.86 1.83 ND ND ND ND | 1.35 | 0/18 |
| GFDLNSYGIS | VIYSDGRRTAYGDHVK | GRNAGTFDS | 0.20 0.31 0.24 -0.35 0.09 0.26 | 0.12 | 0/18 |
| GFDLNSYGIS | VIYSDGRRTFYGDMVK | GRTAGTFDT | 0.22 0.04 0.71 0.58 -0.58 -0.15 | 0.14 | 1/18 (2.60) |
| GFSLNSYGIS | VIYSDGRRTFYADHVK | GQAAGTFDT | 0.68 0.34 0.40 -0.17 0.74 0.64 | 0.44 | 0/18 |
| GKSLNEYGIS | VIYSDGRRTFYGDDVK | GRTAGTFDS | ND ND ND 3.96 2.32 ND | 3.14 | 3/18 (1.71) |
| GFQLNSYGIS | VIYSDGRRTFYADSVK | GQVAGTFDL | ND ND ND ND ND 1.30 | 1.30 | 0/18 |
| GFSLNSYGIS | VIYSDGRRTFYGDPVK | GITAGTFDS | 0.33 -0.42 ND -0.13 0.58 0.31 | 0.13 | 0/18 |
| GFDLNSYGIS | VIYSDGRRTFYQDSVK | GRVAGTFDI | 0.38 0.17 0.81 0.02 0.31 0.50 | 0.37 | 0/18 |
| GFTLNSYGIS | VIYSDGMRTFYSDDVK | GRTAGTFDS | 0.78 1.31 0.44 0.12 1.00 0.86 | 0.75 | 0/18 |
| GFQLNSYGIS | VIYSDGRRTFYGDSVK | GKTAGTFDT | 0.58 0.54 0.39 0.54 0.54 0.92 | 0.59 | 0/18 |
| GFTLESYGIS | VIYSDGRRTFYADMVK | GRAAGTFDS | 1.89 2.03 1.96 1.75 ND 3.55 | 2.23 | 0/18 |
| GFDLNSYGIS | VIYSDGRRTFYKDSVK | GQAAGTFDD | 0.91 1.14 0.92 0.38 0.30 1.23 | 0.81 | 1/18 (2.14) |
| GFTLNDYGIS | VIYSDGRRTFYGDAVK | GRQAGTFDT | ND 0.13 0.46 0.19 -0.34 ND | 0.11 | 0/18 |
| PFELNSYGIS | VIYSDGRRTFYIDSVK | GRQAGTFDS | ND ND ND ND ND ND | ND | 0/18 |
| GKTLNSYGIS | VIYSDGKRTFYADDVK | GRVAGTFDS | 0.76 1.18 1.17 0.98 0.39 0.86 | 0.89 | 1/18 (1.59) |
| GFDLNSYGIS | VIYSDGWRTFYSDSVK | GRTAGTFDS | 0.24 -0.05 0.10 0.00 -0.24 -0.01 | 0.01 | 0/18 |
| GFNLNSYGIS | VIYSDGRRTFYADPVK | GRQAGTFDS | 2.55 0.51 1.07 1.45 0.65 0.98 | 1.20 | 0/18 |
| GFELNSYGIS | VIYSDGRRTFYIDDVK | GQAAGTFDV | ND 2.27 ND 1.21 0.96 0.94 | 1.34 | 0/18 |
| GFSLNSYGIS | VIYSDGRRTFYGDQVK | GQAAGTFDT | 0.94 0.99 0.97 1.23 1.91 0.95 | 1.16 | 0/18 |
| GFSLNSYGIS | VIYSDGKRTFYGDNVK | GQAAGTFDL | 0.42 0.91 2.02 0.41 ND 2.30 | 1.21 | 0/18 |
| GFDLNEYGIS | VIYSDGRRTFYGDSVK | GKAAGTFDL | 0.26 0.26 0.25 0.21 0.21 0.10 | 0.21 | 1/18 (1.94) |
| GFGLNSYGIS | VIYSDGRRTFYSDAVK | GKTAGTFDS | 0.39 -0.19 0.04 -0.03 0.17 -0.10 | 0.05 | 0/18 |
| KFDLNSYGIS | VIYSDGKRTFYADSVK | GRNAGTFDS | 0.22 -0.08 0.62 -0.20 -0.21 0.57 | 0.15 | 1/18 (1.72) |
| GFTLNSYGIS | VIYSDGQRTFYVDSVK | GRVAGTFDL | 2.95 ND 2.22 2.34 1.86 2.28 | 2.33 | 0/18 |
| GFDLNSYGIS | VIYSDGRRTFYQDSVK | GKTAGTFDC | ND 3.16 2.73 2.57 2.41 2.75 | 2.72 | 0/18 |
| GFELNEYGIS | VIYSDGKRTFYGDQVK | GRTAGTFDS | 0.42 0.06 -0.24 0.14 -0.03 0.21 | 0.09 | 0/18 |
| GFSLNSYGIS | VIYSDGRRTFYKDNVK | GETAGTFDS | 0.43 0.56 0.02 0.20 0.26 0.48 | 0.33 | 0/18 |
| GFELNSYGIS | VIYSDGRRTFYSDSVK | GNAAGTFDQ | 1.54 0.64 1.46 0.22 0.53 0.53 | 0.82 | 1/18 (2.10) |
| GFNLNSYGIS | VIYSDGRRTFYADSVK | GRAAATFDT | ND ND ND ND ND ND | ND | 0/18 |
| KFDLNSYGIS | VIYSDGRRTAYQDSVK | GRAAGTFDS | 0.96 1.19 1.45 1.19 1.33 1.27 | 1.23 | 0/18 |

The first 2 variants above that were never detected:

CDR-H1	CDR-H2	CDR-H3	log10 Kd (nM) by replicate	mean log10 Kd (nM)	empty controls
PFELNSYGIS	VIYSDGRRTFYIDSVK	GRQAGTFDS	ND ND ND ND ND ND	ND	0/18
GFNLNSYGIS	VIYSDGRRTFYADSVK	GRAAATFDT	ND ND ND ND ND ND	ND	0/18